The values below are quoted from earlier work in patent US20240100008A1, “ADMINISTRATION OF GLYCEROL TRIBENZOATE AND GLYCEROL PHENYLBUTYRATE FOR TREATMENT OF NEURODEGENERATIVE AND UREA CYCLE DISORDERS” (Rush University Medical Center, priority 2020, published 2024).

The conditions of this series: in vivo.

On to glyceryl dibenzoate, for which the “release form of sodium benzoate” value is “sustained-release and a slow-release form”.
